# Reference: US10689378B2, “Triazolopyridine compounds and uses thereof” (Novartis AG, priority 2016, dated 2020)
# Sequences of proteins named here, by UniProt entry; tags and fusion partners are left off.
# UniProt O75530, whole entry: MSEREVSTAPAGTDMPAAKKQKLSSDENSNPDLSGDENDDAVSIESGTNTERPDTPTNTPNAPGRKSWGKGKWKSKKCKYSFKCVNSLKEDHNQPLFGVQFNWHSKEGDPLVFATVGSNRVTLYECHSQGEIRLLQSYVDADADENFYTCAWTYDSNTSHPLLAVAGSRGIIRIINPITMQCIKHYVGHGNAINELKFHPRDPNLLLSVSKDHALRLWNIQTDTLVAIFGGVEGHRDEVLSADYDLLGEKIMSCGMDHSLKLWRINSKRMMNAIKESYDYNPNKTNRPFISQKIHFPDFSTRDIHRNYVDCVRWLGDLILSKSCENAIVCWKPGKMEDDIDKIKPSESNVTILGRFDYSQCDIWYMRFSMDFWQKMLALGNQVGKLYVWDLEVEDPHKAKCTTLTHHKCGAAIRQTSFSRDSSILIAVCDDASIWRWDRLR
# UniProt Q15910, whole entry partner: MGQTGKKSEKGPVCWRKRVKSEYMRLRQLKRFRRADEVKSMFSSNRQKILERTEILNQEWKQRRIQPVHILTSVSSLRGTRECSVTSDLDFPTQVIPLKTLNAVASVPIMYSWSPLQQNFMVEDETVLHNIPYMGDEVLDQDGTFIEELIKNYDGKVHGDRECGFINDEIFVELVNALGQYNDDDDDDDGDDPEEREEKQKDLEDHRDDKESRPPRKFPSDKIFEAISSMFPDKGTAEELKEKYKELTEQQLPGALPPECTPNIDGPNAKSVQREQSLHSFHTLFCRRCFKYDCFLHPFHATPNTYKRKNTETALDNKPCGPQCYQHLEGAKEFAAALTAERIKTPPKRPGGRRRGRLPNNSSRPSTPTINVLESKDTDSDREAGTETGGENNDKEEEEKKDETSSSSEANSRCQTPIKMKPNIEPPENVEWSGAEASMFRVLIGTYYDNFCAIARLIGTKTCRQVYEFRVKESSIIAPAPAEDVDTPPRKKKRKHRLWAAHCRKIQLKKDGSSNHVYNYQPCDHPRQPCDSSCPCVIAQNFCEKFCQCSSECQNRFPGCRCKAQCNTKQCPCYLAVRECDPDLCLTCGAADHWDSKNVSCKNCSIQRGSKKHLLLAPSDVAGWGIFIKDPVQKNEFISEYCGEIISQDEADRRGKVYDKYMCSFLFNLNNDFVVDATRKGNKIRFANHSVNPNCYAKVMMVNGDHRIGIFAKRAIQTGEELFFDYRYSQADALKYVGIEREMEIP
# UniProt Q15022, whole entry partner: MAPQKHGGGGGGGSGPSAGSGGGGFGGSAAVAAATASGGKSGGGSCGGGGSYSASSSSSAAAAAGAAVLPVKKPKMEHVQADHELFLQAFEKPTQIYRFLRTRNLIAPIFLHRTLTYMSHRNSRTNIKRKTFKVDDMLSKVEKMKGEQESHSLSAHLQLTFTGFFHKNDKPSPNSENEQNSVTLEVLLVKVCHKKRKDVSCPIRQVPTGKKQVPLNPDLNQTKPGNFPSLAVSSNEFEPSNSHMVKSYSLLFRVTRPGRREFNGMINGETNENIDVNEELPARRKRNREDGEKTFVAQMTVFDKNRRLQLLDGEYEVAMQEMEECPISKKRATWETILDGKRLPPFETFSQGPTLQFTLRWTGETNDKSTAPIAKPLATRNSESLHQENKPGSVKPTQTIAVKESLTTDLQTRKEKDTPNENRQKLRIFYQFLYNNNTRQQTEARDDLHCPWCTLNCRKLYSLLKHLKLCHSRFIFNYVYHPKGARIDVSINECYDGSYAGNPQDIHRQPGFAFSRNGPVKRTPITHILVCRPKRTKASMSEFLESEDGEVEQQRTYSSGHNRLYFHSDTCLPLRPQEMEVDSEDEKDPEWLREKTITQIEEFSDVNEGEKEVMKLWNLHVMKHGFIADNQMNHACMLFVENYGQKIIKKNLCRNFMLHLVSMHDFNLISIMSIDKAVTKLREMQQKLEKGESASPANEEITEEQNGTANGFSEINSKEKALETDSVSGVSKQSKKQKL
# UniProt Q09028, whole entry partner: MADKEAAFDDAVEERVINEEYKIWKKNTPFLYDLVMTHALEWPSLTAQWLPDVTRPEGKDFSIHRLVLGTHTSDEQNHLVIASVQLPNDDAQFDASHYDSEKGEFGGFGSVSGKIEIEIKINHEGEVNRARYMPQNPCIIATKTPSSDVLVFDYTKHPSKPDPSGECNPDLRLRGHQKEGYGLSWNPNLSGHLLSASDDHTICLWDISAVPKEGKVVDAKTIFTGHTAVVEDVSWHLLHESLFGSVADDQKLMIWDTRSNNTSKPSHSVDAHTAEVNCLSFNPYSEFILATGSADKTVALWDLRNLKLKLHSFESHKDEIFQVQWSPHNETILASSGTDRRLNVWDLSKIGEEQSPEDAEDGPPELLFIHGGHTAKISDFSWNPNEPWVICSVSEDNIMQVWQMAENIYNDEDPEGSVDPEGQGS
# UniProt Q6ZN18, whole entry partner: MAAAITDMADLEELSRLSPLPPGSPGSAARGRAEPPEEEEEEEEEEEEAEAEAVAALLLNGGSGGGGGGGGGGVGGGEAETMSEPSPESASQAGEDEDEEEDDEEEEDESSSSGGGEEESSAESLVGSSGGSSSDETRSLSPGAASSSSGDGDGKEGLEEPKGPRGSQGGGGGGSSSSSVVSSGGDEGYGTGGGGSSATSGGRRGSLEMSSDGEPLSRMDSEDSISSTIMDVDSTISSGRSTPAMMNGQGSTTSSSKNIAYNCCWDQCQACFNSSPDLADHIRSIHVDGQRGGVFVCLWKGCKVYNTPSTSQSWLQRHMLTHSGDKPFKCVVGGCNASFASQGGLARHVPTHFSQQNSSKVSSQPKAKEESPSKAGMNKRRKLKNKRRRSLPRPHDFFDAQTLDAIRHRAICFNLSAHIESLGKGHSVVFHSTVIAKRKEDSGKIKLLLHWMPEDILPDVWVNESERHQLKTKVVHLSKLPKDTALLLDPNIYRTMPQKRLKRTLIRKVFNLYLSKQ
# Where two headings read alike, the source gives them in different places.
# Columns and labels:
# [1] = system: H3K27 methylation in G401 cell; experiment: ELISA (H3K27 methylation) assay in G401 cells
# Procedure: (§1) Compounds of the present invention were assessed for their ability to inhibit PRC2 activity in a pentameric complex of EZH2, SUZ12, EED, Rbap48 and AEBP in biochemical assays. The ability of compounds of the present invention to inhibit cellular activity of PRC2 was assessed by analysing histone H3 lysine 27 methylation in human cell lines. The ability of compounds of the present invention to inhibit cancers was derived from their ability to modulate activity in human cancer cell lines bearing specific dependence to PRC2 activity to maintain cancerous growth.
# ELISA (H3K27 Methylation) Assay
# Representative compounds of the present invention were serially and separately diluted 3-fold in DMSO to obtain a total of eight or twelve concentrations. Then the compounds were added to G401 cell cultured in 384-well plate at 1:500 dilution to obtain the highest concentration of 20 μM. The cells were further cultured for 48 h before ELISA procedure. […]
# ELISA protocol: Cell lysates were transferred to the wells of a 384-well plate and the final volume was adjusted to 50 μL per well with PBS. […] The signal was read using a PerkinElmer Envision Reader. The H3K27 methylation readouts were normalized using H3 signal and then percentage inhibition was calculated against the samples treated with DMSO. […]
# EED (1-441)-His protein = EED (1-441)-His protein (Homo sapiens, UniProt O75530); experiment: EED-H3K27Me3 peptide competition binding assay by AlphaScreen
# Procedure: EED-H3K27Me3 Peptide Competition Binding Assay by AlphaScreen (α-Screen)
# To assess the compounds' potency in the EED-H3K27Me3 competition binding assay, compounds were serially diluted 3-fold in DMSO to obtain a total of twelve concentrations. Then compounds at each concentration (75 nL of each) were transferred by Mosquito into a 384-well Perkin Elmer ProxiPlate 384 plus plates. 8 uL of solutions containing 30 nM EED (1-441)-His protein and 15 nM biotin-H3K27Me3 (19-33) peptide in the buffer (25 mM HEPES, pH 8, 0.02% Tween-20, 0.5% BSA) were added to the wells and then incubated with compound for 20 min. AlphaScreen detection beads mix was prepared immediately before use by mixing nickel chelate acceptor beads and streptavidin donor beads in a 1:1 ratio (Perkin Elmer, Product No. 6760619C/M/R) into the buffer described above. Then 4 μL of detection beads mix was added to the plate and incubate in the dark at the rt for 1 h. The final concentration of donor and acceptor beads was 10 μg/mL for each. Plates were read on EnVision (PerkinElmer) using the AlphaScreen setting adapted for optimal signal detection with a 615 nm filter, after sample excitation at 680 nm. The emission signal at 615 nm was used to quantify compounds inhibition. […]
# [2] = target: wild type PRC2 (wtPRC2) complex (Homo sapiens, UniProt O75530); experiment: EED LC-MS assay (SAH production by PRC2); conditions: read-out: (b) IC50 EED LC-MS Qualified
# Procedure: as §1
# Representative compounds of the present invention were serially and separately diluted 3-fold in DMSO to obtain a total of eight or twelve concentrations. Then the test compounds at each concentration (120 nL of each) were transferred by Mosquito into a 384-well Perkin Elmer ProxiPlate 384 plus plates. Solutions (6 μL) of 24 nM the wild type PRC2 (wtPRC2) complex and 2 μM SAM in reaction buffer (20 mM Tris, pH 8.0, 0.1% BSA, 0.01% Triton, 0.5 mM DTT) were added to the wells that were then incubated with the test compound for 20 min. […] The reaction mixture was centrifuged (Eppendorf centrifuge 5810, Rotor A-4-62) for 2 min at 2000 rpm and read on an API 4000 triple quadrupole mass spec with Turbulon Spray (Applied Biosystem) coupled with Prominence UFLC (Shimadzu). […]
"IC50 ([1]; read-out: (c) IC50, ELISA Qualified) [nM]","IC50 (EED (1-441)-His protein; read-out: (a) IC50, EED Alphascreen binding Qualified) [nM]","IC50 ([1]; read-out: (c) IC50 ELISA Qualified, H3K27 methylation ELISA) [nM]",IC50 [2] [nM],"IC50 (EED (1-441)-His protein; read-out: (a) IC50 EED Alphascreen binding Qualified, EED-H3K27Me3 peptide competition, AlphaScreen) [nM]",Compound
183,320,,,,COc1ccc(F)c(CNc2ccc(-c3ccc(S(=O)(=O)C4CCN(C)CC4)cc3)c3nncn23)c1
,,20.6,60.7,35.9,COc1cc(F)cc(F)c1CNc1ccc(-c2cnc(C)nc2C)c2nncn12
